The values that follow come from article PMC9962794, “A Novel and Functionally Diverse Class of Acetylcholine-Gated Ion Channels” (The Journal of Neuroscience, 2023).

By UniProt entry, the sequences of proteins in these tests, tags left out. Residues count along the entry.
UniProt Q21005, 25-466: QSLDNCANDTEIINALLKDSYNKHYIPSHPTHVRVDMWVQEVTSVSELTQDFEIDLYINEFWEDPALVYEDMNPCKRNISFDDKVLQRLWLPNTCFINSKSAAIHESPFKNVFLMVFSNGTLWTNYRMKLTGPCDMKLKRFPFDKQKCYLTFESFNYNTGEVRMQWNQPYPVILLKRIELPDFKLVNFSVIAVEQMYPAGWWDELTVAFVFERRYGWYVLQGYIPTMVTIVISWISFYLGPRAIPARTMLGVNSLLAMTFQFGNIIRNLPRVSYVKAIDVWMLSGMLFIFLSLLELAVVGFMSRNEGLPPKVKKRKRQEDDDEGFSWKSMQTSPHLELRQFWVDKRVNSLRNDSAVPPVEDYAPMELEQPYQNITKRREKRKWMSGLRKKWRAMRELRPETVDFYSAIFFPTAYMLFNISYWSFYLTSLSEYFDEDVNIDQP

The target of the test is ACC-1 (Caenorhabditis elegans, UniProt Q21005). The following applies: agonist; ND96, clamped at -60 mV; ACC-1 expressed alone.

Molecules are shown by their SMILES.

Turning to `CC(=O)OCC[N+](C)(C)C` [acetylcholine], the EC50 result was “ACh-induced dose–response curves for oocytes expressing ACC-1 alone or in combination with LGC-47”.
